Data from patent US20090143392A1, “Methods of Treating Obesity and Metabolic Disorders” (ELBION GMBH, priority 2007, published 2009).

The chains behind the UniProt entries cited, without tags or fusion partners. Residues count along the entry.
UniProt A0A287B941, 1-1069: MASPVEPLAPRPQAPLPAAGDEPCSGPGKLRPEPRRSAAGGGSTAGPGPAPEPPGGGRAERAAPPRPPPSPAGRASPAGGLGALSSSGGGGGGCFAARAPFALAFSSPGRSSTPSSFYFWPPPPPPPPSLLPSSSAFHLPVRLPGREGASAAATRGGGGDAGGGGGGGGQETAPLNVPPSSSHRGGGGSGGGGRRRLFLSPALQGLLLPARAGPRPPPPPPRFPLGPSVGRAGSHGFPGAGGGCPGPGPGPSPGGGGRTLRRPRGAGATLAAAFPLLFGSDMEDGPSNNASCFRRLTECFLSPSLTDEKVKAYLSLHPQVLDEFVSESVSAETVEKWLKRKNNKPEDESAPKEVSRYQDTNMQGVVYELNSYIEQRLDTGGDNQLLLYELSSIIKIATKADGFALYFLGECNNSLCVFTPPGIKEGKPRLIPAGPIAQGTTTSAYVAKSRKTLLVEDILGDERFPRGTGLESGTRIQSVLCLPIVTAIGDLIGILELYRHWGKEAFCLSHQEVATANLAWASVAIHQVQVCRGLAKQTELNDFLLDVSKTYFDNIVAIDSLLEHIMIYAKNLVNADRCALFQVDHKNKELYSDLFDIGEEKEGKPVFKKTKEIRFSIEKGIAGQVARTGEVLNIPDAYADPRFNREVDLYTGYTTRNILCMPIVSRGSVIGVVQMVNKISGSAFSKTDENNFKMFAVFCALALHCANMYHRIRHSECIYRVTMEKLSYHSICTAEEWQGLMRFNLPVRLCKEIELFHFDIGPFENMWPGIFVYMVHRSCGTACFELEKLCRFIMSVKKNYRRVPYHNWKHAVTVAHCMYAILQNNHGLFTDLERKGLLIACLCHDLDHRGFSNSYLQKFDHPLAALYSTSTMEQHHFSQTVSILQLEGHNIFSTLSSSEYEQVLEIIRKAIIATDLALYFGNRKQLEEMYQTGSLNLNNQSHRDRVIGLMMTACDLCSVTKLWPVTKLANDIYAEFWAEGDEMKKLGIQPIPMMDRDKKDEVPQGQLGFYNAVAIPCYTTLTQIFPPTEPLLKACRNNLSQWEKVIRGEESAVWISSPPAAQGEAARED
UniProt Q9QYJ6, whole entry: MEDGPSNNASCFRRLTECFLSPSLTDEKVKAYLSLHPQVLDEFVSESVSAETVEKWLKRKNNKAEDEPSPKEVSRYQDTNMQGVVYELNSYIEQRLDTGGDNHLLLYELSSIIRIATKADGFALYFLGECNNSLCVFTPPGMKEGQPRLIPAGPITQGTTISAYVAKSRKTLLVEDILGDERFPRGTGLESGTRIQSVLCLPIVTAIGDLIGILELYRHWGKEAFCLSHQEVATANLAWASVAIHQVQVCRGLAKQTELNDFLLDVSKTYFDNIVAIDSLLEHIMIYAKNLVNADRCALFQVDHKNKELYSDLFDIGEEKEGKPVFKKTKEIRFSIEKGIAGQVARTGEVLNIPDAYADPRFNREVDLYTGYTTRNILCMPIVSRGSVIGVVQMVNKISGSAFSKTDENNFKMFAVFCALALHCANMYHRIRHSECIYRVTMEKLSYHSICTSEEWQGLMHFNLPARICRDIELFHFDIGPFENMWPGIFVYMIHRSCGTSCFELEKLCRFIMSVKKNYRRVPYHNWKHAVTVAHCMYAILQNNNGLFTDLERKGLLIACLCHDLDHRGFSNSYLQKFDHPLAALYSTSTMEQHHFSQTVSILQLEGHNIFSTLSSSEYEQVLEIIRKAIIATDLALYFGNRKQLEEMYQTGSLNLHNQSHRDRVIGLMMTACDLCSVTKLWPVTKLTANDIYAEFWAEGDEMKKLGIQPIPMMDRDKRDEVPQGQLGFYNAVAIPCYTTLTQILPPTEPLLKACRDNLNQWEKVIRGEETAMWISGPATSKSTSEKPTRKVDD

Columns and labels:
PDE10 from pig striatum = PDE10 from pig striatum (Sus scrofa, UniProt A0A287B941); test: Inhibition of PDE10 from pig striatum; type: biochemical; conditions: read-out: Inhibition of PDE10 from pig IC50, 0.1 μM [3H]-cAMP, 37° C., 30 minutes
PDE10 from rat striatum = PDE10 from rat striatum (Rattus norvegicus, UniProt Q9QYJ6); test: Inhibition of PDE10 from rat striatum; type: biochemical; conditions: read-out: Inhibition of PDE10 from rat IC50, 0.1 μM [3H]-cAMP, 37° C., 30 minutes

**Q.** For `CCc1nc(C)c2c(Cl)nc3ccc(OC)nc3n12`, which IC50 (PDE10 from pig striatum) is on record?
**A.** Its IC50 is 17 nM.

**Q.** What about the IC50 (PDE10 from rat striatum) of the same molecule?
**A.** The IC50 was 23 nM.
